Here are results for 4 molecules from US6747057B2 (priority 2001, dated 2004).

Usually IC50 stands for the concentration that inhibits the measured activity by half.

The assay deals with GSK-3. As to the kind of experiment: Inhibition of GSK-3 (32P incorporation into GS 1 peptide). It is filed as biochemical. Conditions: read-out: IC50 GSK-3 inhibition; 37° C., 20 minutes, GS 1 peptide 15 μM, ATP 15 μM.
`O=C(c1ccc(Br)cc1)C(Br)Br`: the IC50 is 0.75 µM.
The result for `O=C(c1ccccc1)C(Br)Br` reads 2.5 µM; that for “2-Chloro-1-(5-cbloro-thioiphen-2-yl)-ethanone”, 10 µM.
Regarding `O=C(c1ccc(Cl)cc1)C(Cl)Br` (stereo not shown), the IC50 is 7.5 µM.
